Laboratory results reported in patent publication US20240190851A1, “FURAN FUSED RING-SUBSTITUTED GLUTARIMIDE COMPOUND” (MEDSHINE DISCOVERY INC., priority 2021, published 2024).
pIC50: −log10 of the molar value.

Chains of the proteins cited; added tags and fusions are not shown.
UniProt P10275, whole entry F877L: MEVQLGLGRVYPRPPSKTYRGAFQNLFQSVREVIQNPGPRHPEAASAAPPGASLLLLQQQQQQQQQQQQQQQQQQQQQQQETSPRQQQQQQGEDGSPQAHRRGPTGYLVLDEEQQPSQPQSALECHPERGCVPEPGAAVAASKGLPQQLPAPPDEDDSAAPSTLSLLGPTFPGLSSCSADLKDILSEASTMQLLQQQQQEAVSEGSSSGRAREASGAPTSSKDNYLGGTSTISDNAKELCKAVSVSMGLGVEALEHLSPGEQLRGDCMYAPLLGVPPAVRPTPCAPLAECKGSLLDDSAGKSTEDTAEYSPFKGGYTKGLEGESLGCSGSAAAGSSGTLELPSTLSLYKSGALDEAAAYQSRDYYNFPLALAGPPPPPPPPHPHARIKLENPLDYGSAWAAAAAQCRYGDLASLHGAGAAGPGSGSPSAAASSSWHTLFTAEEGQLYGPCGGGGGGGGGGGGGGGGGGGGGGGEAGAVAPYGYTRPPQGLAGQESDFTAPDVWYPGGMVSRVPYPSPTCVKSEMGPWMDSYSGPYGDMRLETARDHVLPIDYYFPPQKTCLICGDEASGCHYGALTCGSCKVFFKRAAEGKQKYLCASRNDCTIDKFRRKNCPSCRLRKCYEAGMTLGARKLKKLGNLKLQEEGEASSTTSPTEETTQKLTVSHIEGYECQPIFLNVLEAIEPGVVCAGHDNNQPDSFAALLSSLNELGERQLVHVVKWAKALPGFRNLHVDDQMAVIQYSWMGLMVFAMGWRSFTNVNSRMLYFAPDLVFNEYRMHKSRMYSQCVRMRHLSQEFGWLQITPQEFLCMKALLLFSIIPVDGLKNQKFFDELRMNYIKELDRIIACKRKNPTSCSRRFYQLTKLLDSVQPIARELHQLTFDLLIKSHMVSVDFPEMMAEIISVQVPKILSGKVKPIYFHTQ

Tests used:
AR F876L = AR F876L (Homo sapiens, UniProt P10275, F877L); assay: In cell western of AR protein in 293T AR F876L cells; details: AR degradation, 48 hours
Protocol: Experimental purpose: In this experiment, the effects of compounds WX015, WX016, and WX017 on the expression level of AR protein with point mutation in cell line 293T AR F876L were detected by in cell western assay to evaluate the degradation effect of compounds on proteins with AR F876L point mutation.
The cell line was cultured in a 37° C., 5% CO2 incubator. Regular passage, and cells in logarithmic growth phase were taken for plating.
2. Cell Plating: • 1) Cells were stained with trypan blue and viable cells were counted. • 2) The cell concentration was adjusted to an appropriate concentration with a density of 20000/well. • 3) 90 μL of cell suspension per well was added to a 96-well culture plate, and cell-free culture medium was added to the blank control well. • 4) The culture plate was cultured overnight in a 37° C., 5% CO2 incubator with 100% relative humidity.
3. Preparation of compound storage plate and in cell western detection: • 1) Preparation of 400× compound storage plate: The compound was serially diluted with DMSO from the highest concentration to the lowest concentration. • 2) Preparation of 10× compound working solution: To a V-bottom 96-well plate was added 78 μL of cell culture medium, and 2 μL of compound was pipetted from a 400× compound storage plate and added to the cell culture medium of the 96-well plate. 2 μL of DMSO was added to vehicle control and blank control. After the compound or DMSO was added, blowing with a pipette and mixing well were carried out. • 3) Administration: 10 μL of 10× compound working solution was added to the cell culture plate. To vehicle control and blank control was added 10 μL of DMSO-cell culture medium mixture. […] The plate was added with 50 μL of primary antibody diluted with Licor blocking buffer per well (no primary antibody was added to DMSO wells), incubated overnight at 4° C., and then washed five times with PBST (containing 0.1% Triton-X) for 5 minutes each time. • 9) The plate was added with 50 μL of secondary antibody diluted with Licor blocking buffer per well, incubated at room temperature for 1 hour, washed three times with PBST (containing 0.1% Triton-X), washed twice with ddH2O, and then added with 100 μL of PBS per well for detection. • 10) Detection: PBS was poured out of the well plate, and the fluorescence signal at 700 nm per well was detected by Li—COR odyssey two-color near-infrared imager.
Relative quantification of the density intensity of immunoblot chemiluminescence bands was performed using Image Studio Ver 5.2 software.

[1] = tested on: human prostate cancer LNCaP cells; assay: Antiproliferative effect in LNCaP cells (CellTiter-Glo, 6 days); details: read-out: LNCaP IC50
Protocol: In this experiment, the inhibitory effect of the test compound on cell proliferation in human prostate cancer LNCaP cells was detected.
The tumor cell lines were cultured in a 37° C., 5% CO2 incubator under the above culture conditions. Regular passage, and cells in logarithmic growth phase were taken for plating.
2. Cell Plating • (1) Cells were stained with trypan blue and viable cells were counted; • (2) the cell concentration was adjusted to an appropriate concentration;
• (3) 90 μL of cell suspension per well was added to the culture plate as shown in the table above, and cell-free culture medium was added to the blank control well; • (4) the culture plate was cultured overnight in a 37° C., 5% CO2 incubator with 100% relative humidity.
Preparation of stock solution storage plate with 400 times the initial concentration of the compound: The compound was serially diluted with DMSO from the highest concentration to the lowest concentration. The solution was prepared as needed each time.
Preparation of Working Solution with 10 Times the Initial Concentration of Compounds and Cell Treatment with Compounds • (1) To a V-bottom 96-well plate was added 78 μL of cell culture medium, and 2 μL of compound was pipetted from a stock solution storage plate with 400 times the initial concentration of the compound and added to the cell culture medium of the 96-well plate. […]

Structure (SMILES) | DC50 (AR F876L) [nM] | Dmax (AR F876L) [%] | pIC50 [1]
N#Cc1ccc(O[C@H]2CC[C@H](NC(=O)c3ccc(N4CCC(CN5CCN(c6cccc7c6ccc6occ(C8CCC(=O)NC8=O)c67)CC5)CC4)nn3)CC2)cc1Cl (single isomer, unassigned) [WX016] | 18 | 86 | 7.51
N#Cc1ccc(O[C@H]2CC[C@H](NC(=O)c3ccc(N4CCC(CN5CCN(c6cccc7c6ccc6occ(C8CCC(=O)NC8=O)c67)CC5)CC4)nn3)CC2)cc1Cl (single isomer, unassigned) [WX017] | 97 | 95 | 7.36
